Assay results published in article PMC5063977 (The Journal of Biological Chemistry, 2016).

Sequences of proteins named here, by UniProt entry; tags and fusion partners are left off. Residues count along the entry.
UniProt O60894, 27-148: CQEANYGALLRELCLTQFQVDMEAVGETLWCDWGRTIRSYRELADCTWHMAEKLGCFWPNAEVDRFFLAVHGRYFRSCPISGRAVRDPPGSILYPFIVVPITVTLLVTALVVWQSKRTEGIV
UniProt Q16602, 23-461: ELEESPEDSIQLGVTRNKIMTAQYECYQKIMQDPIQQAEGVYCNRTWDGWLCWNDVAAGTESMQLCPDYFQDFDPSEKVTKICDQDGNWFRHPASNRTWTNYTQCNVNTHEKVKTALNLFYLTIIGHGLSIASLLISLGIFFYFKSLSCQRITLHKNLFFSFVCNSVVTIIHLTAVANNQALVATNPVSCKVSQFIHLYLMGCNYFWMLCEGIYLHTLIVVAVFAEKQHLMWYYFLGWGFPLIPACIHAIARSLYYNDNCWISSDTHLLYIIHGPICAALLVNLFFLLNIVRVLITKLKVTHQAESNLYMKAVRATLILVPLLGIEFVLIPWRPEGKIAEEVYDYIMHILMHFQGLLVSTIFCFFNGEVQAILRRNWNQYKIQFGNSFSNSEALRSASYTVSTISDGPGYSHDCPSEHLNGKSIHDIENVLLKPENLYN
UniProt O60895, 43-175: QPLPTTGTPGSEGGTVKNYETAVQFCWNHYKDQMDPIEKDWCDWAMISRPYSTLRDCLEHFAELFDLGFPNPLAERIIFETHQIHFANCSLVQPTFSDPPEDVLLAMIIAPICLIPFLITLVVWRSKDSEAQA
UniProt O60896, 24-148: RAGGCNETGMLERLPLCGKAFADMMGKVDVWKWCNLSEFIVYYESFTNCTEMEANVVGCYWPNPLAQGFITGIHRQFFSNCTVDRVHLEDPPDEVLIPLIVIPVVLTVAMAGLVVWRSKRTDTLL

What was measured:
Assay type in all cases: cell-based
[1] = biological target: T1, RAMP1-CLR (CGRP receptor) (Homo sapiens, UniProt O60894+Q16602); assay: S. cerevisiae growth assay, GPA1/Gαi chimera, RAMP1 + CLR
T1 construct: FLAG; expressed in transfected cells; host or cells: HEK-293 or HEK-293S cells, transient transfection, 1:1 RAMP:CLR
Experimental: (§1) FIGURE 3. […] Reporter gene activity was determined following 20 h of stimulation.
(§2) General yeast procedures were performed as described previously ([22], [24]). The human CLR was introduced into yeast cells under the control of the PGK promoter using a plasmid containing ura3 (pDT-PGK). The three human RAMPs were introduced into yeast under the control of the GAPDH promoter using plasmids containing leu2 (p425-GPD) ([25]). S. cerevisiae dual reporter strains expressing chimeras of yeast GPA1(1–467) (GPA1/Gα) with the five C-terminal amino acids of […] human G proteins representing Gαs, Gα16, Gαq, Gαo, Gαi1/2, Gαi3, Gαz, Gα12, Gα13, and Gα14 (MMY84–MMY93) were used in this study ([52]). […] Receptor signaling was measured using the yeast growth assay as described previously ([24]). […] A fluorescein signal was detected as an increase in fluorescence (excitation wavelength = 485 nm, emission wavelength = 535 nm) as a measure of growth. Different concentrations of ligand (0.01 nM–100 μM) were assayed using 96-well plates, and fluorescence was detected using a Tecan Infinite M200 microplate reader (Tecan Ultra Evolution, Reading, UK) or a Mithras LB 940 microplate reader (Berthold Technologies, Harpenden, UK) for 20 h. […]

[2] = biological target: T2, RAMP2-CLR (AM1 receptor) (Homo sapiens, UniProt O60895+Q16602); assay: S. cerevisiae growth assay, GPA1/Gαi chimera, RAMP2 + CLR
T2 construct: FLAG; expressed in transfected cells; host or cells: HEK-293 or HEK-293S cells, transient transfection, 1:1 RAMP:CLR
Experimental: as §1, §2

[3] = biological target: T3, RAMP3-CLR (AM2 receptor) (Homo sapiens, UniProt O60896+Q16602); assay: S. cerevisiae growth assay, GPA1/Gαi chimera, RAMP3 + CLR
T3 construct: FLAG; expressed in transfected cells; host or cells: HEK-293 or HEK-293S cells, transient transfection, 1:1 RAMP:CLR
Experimental: as §1, §2

[4] = biological target: T2, RAMP2-CLR (AM1 receptor); assay: S. cerevisiae growth assay, GPA1/Gαq chimera, RAMP2 + CLR
Experimental: FIGURE 7. […] Reporter gene activity was determined following 24-h stimulation. All data are expressed as percentage of the maximum response observed in yeast strain MMY11 and are means ± S.E. of n individual data sets. D, Bar chart showing the efficacy of each ligand for each RAMP-CLR combination at the Gαq chimera determined via application of the operational model of receptor agonism (Ref. [34] and Table 1). Data were determined as statistically different from the cognate ligand for each receptor (***, p < 0.001; ****, p < 0.0001) using one-way ANOVA with Bonferroni's post-test. E, signaling bias plots were calculated as ΔΔ(τ/Ka) values on a logarithmic scale for each ligand and for each chimera G protein for the three individual RAMP-CLR complexes.
General yeast procedures were performed as described previously ([22], [24]). […] Receptor signaling was measured using the yeast growth assay as described previously ([24]). […] A fluorescein signal was detected as an increase in fluorescence (excitation wavelength = 485 nm, emission wavelength = 535 nm) as a measure of growth. Different concentrations of ligand (0.01 nM–100 μM) were assayed using 96-well plates, and fluorescence was detected using a Tecan Infinite M200 microplate reader (Tecan Ultra Evolution, Reading, UK) or a Mithras LB 940 microplate reader (Berthold Technologies, Harpenden, UK) for 20 h. […]

EC50 [1]: 2.69 nM
Kd [1]: 5.75 nM
EC50 [2]: 3.8 nM
Kd [2]: 5.01 nM
EC50 [3]: 3.24 nM
Kd [3]: 5.01 nM
EC50 [4]: 0.603 nM
Kd [4]: 0.692 nM
SMILES: CSCC[C@H](NC(=O)[C@H](CC(C)C)NC(=O)[C@H](CCC(N)=O)NC(=O)[C@H](Cc1c[nH]c2ccccc12)NC(=O)[C@H](CC(C)C)NC(=O)[C@H](CCCNC(=N)N)NC(=O)[C@H](Cc1c[nH]cn1)NC(=O)[C@H](CO)NC(=O)[C@H](CC(C)C)NC(=O)[C@H](CC(N)=O)NC(=O)[C@H](CCC(N)=O)NC(=O)[C@@H](NC(=O)[C@H](CCC(N)=O)NC(=O)[C@@H]1CSSC[C@H](NC(=O)CNC(=O)[C@@H](NC(=O)[C@H](CCCNC(=N)N)NC(=O)[C@H](CC(C)C)NC(=O)[C@H](CC(C)C)NC(=O)[C@H](CCC(N)=O)NC(=O)[C@H](C)NC(=O)[C@H](CCC(N)=O)NC(=O)[C@@H](N)[C@@H](C)O)C(C)C)C(=O)N[C@@H](C(C)C)C(=O)N[C@@H](CC(C)C)C(=O)NCC(=O)N[C@@H]([C@@H](C)O)C(=O)N1)C(C)C)C(=O)NCC(=O)N1CCC[C@H]1C(=O)N[C@@H](C)C(=O)NCC(=O)N[C@@H](CCCNC(=N)N)C(=O)N[C@@H](CCC(N)=O)C(=O)N[C@@H](CC(=O)O)C(=O)N[C@@H](CO)C(=O)N[C@@H](C)C(=O)N1CCC[C@H]1C(=O)N[C@H](C(=O)N[C@@H](CC(=O)O)C(=O)N1CCC[C@H]1C(=O)N[C@@H](CO)C(=O)N[C@@H](CO)C(=O)N1CCC[C@H]1C(=O)N[C@@H](Cc1c[nH]cn1)C(=O)N[C@@H](CO)C(=O)N[C@@H](Cc1ccc(O)cc1)C(N)=O)C(C)C [AM2, adrenomedullin 2]
